The nature of this series: Comparative toxicity study (LD0, LD50) and therapeutic index. The conditions noted are these: mouse, in vivo. The source says:
In the study of the cytostatic action, 6-mercaptopurine was taken as the comparative anti-neoplastic drug.

For the compound `O=C1c2cccc3cc([N+](=O)[O-])cc(c23)C(=O)N1CCN1CCCCC1` [Compound 1, N-[2-(N-piperidino)ethyl]-3-nitronaphthalimide], the selectivity ratio came to 1.
In the case of `CCN(CC)CCN1C(=O)c2cccc3cc([N+](=O)[O-])cc(c23)C1=O` [Compound 2, N-(2-diethylaminoethyl)-3-nitronaphthalimide] it was 0.66.

The values above are taken from patent publication US4146720A, “N-Aminoethyl-substituted-3-nitronaphthalimides” (priority 1977, dated 1979).
